Measured values from ChEMBL document CHEMBL6177919, “Development, biological evaluation, and molecular modelling of some benzene-sulfonamide derivatives as protein tyrosine phosphatase-1B inhibitors for managing diabetes mellitus and associated metabolic disorders” (RSC Med Chem, 2025).
Activity calls are given as the source filed them.

Tests used:
Format in all cases: functional, organism-based
Rattus norvegicus [1] = experiment: Antidiabetic activity in high fat diet/streptozotocin induced diabetic male Albino rat model assessed as decrease in ALT level at 2 mg/kg, po administered for 4 weeks by colorimetric assay
Rattus norvegicus [2] = experiment: Antidiabetic activity in high fat diet/streptozotocin induced diabetic male Albino rat model assessed as decrease in AST level at 2 mg/kg, po administered for 4 weeks by colorimetric assay
Rattus norvegicus [3] = experiment: Antidiabetic activity in high fat diet/streptozotocin induced diabetic male Albino rat model assessed as decrease in creatinine level at 2 mg/kg, po administered for 4 weeks by colorimetric assay
Rattus norvegicus [4] = experiment: Antidiabetic activity in high fat diet/streptozotocin induced diabetic male Albino rat model assessed as decrease in urea level at 2 mg/kg, po administered for 4 weeks by colorimetric assay
Rattus norvegicus [5] = experiment: Antiinflammatory activity in high fat diet/streptozotocin induced diabetic male Albino rat model assessed as reduction in NF-kappaB level in serum at 2 mg/kg, po using self assembled nanoparticle as source of compound administered for 4 weeks by ELISA analysis
Rattus norvegicus [6] = experiment: Antiinflammatory activity in high fat diet/streptozotocin induced diabetic male Albino rat model assessed as reduction in NF-kappaB level in serum at 2 mg/kg, po administered for 4 weeks by ELISA analysis
Rattus norvegicus [7] = experiment: Antiinflammatory activity in high fat diet/streptozotocin induced diabetic male Albino rat model assessed as reduction in TNF-alpha level in serum at 2 mg/kg, po administered for 4 weeks by ELISA analysis
Rattus norvegicus [8] = experiment: Antiinflammatory activity in high fat diet/streptozotocin induced diabetic male Albino rat model assessed as reduction in IL-1beta level in serum at 2 mg/kg, po administered for 4 weeks by ELISA analysis
Rattus norvegicus [9] = experiment: Antiinflammatory activity in high fat diet/streptozotocin induced diabetic male Albino rat model assessed as reduction in IL-6 level in serum at 2 mg/kg, po administered for 4 weeks by ELISA analysis
Rattus norvegicus [10] = experiment: Antidiabetic activity in high fat diet/streptozotocin induced diabetic male Albino rat model assessed as decrease in ALT level at 2 mg/kg, po using self assembled nanoparticle as source of compound administered for 4 weeks by colorimetric assay
Rattus norvegicus [11] = experiment: Antidiabetic activity in high fat diet/streptozotocin induced diabetic male Albino rat model assessed as decrease in AST level at 2 mg/kg, po using self assembled nanoparticle as source of compound administered for 4 weeks by colorimetric assay
Rattus norvegicus [12] = experiment: Antidiabetic activity in high fat diet/streptozotocin induced diabetic male Albino rat model assessed as decrease in urea level at 2 mg/kg, po using self assembled nanoparticle as source of compound administered for 4 weeks by colorimetric assay
Rattus norvegicus [13] = experiment: Antidiabetic activity in high fat diet/streptozotocin induced diabetic male Albino rat model assessed as decrease in CAT level in serum at 2 mg/kg, po using self assembled nanoparticle as source of compound administered for 4 weeks by ELISA analysis
Rattus norvegicus [14] = experiment: Antidiabetic activity in high fat diet/streptozotocin induced diabetic male Albino rat model assessed as decrease in CAT level in serum at 2 mg/kg, po administered for 4 weeks by ELISA analysis
Rattus norvegicus [15] = experiment: Antidiabetic activity in high fat diet/streptozotocin induced diabetic male Albino rat model assessed as effect on GSH level in serum at 2 mg/kg, po administered for 4 weeks by ELISA analysis
Rattus norvegicus [16] = experiment: Antidiabetic activity in high fat diet/streptozotocin induced diabetic male Albino rat model assessed as effect on GSH level at 2 mg/kg, po using self assembled nanoparticle as source of compound administered for 4 weeks by ELISA analysis
Rattus norvegicus [17] = experiment: Antidiabetic activity in high fat diet/streptozotocin induced diabetic male Albino rat model assessed as effect on SOD level in serum at 2 mg/kg, po administered for 4 weeks by ELISA analysis
Rattus norvegicus [18] = experiment: Antidiabetic activity in high fat diet/streptozotocin induced diabetic male Albino rat model assessed as effect on SOD level in serum at 2 mg/kg, po using self assembled nanoparticle as source of compound administered for 4 weeks by ELISA analysis
Rattus norvegicus [19] = experiment: Antidiabetic activity in high fat diet/streptozotocin induced diabetic male Albino rat model assessed as effect on MDA level in serum at 2 mg/kg, po administered for 4 weeks by ELISA analysis
Rattus norvegicus [20] = experiment: Antidiabetic activity in high fat diet/streptozotocin induced diabetic male Albino rat model assessed as effect on MDA level in serum at 2 mg/kg, po using self assembled nanoparticle as source of compound administered for 4 weeks by ELISA analysis
Rattus norvegicus [21] = experiment: Antiinflammatory activity in high fat diet/streptozotocin induced diabetic male Albino rat model assessed as reduction in TNF-alpha level in serum at 2 mg/kg, po using self assembled nanoparticle as source of compound administered for 4 weeks by ELISA analysis
Rattus norvegicus [22] = experiment: Antiinflammatory activity in high fat diet/streptozotocin induced diabetic male Albino rat model assessed as reduction in IL-1beta level in serum at 2 mg/kg, po using self assembled nanoparticle as source of compound administered for 4 weeks by ELISA analysis
Rattus norvegicus [23] = experiment: Antiinflammatory activity in high fat diet/streptozotocin induced diabetic male Albino rat model assessed as reduction in IL-6 level in serum at 2 mg/kg, po using self assembled nanoparticle as source of compound administered for 4 weeks by ELISA analysis
Rattus norvegicus [24] = experiment: Antiinflammatory activity in high fat diet/streptozotocin induced diabetic male Albino rat model assessed as reduction in leptin level in adipose tissue at 2 mg/kg, po using self assembled nanoparticle as source of compound administered for 4 weeks by ELISA analysis
Rattus norvegicus [25] = experiment: Antiinflammatory activity in high fat diet/streptozotocin induced diabetic male Albino rat model assessed as reduction in leptin level in adipose tissue at 2 mg/kg, po administered for 4 weeks by ELISA analysis
Rattus norvegicus [26] = experiment: Antiinflammatory activity in high fat diet/streptozotocin induced diabetic male Albino rat model assessed as reduction in adiponectin level in adipose tissue at 2 mg/kg, po using self assembled nanoparticle as source of compound administered for 4 weeks by ELISA analysis
Rattus norvegicus [27] = experiment: Antiinflammatory activity in high fat diet/streptozotocin induced diabetic male Albino rat model assessed as reduction in adiponectin level in adipose tissue at 2 mg/kg, po administered for 4 weeks by ELISA analysis
Rattus norvegicus [28] = experiment: Antiinflammatory activity in high fat diet/streptozotocin induced diabetic male Albino rat model assessed as reduction in leptin expression in adipose tissue at 2 mg/kg, po administered for 4 weeks
Rattus norvegicus [29] = experiment: Antiinflammatory activity in high fat diet/streptozotocin induced diabetic male Albino rat model assessed as reduction in adiponectin expression in adipose tissue at 2 mg/kg, po administered for 4 weeks
Rattus norvegicus [30] = experiment: Antiinflammatory activity in high fat diet/streptozotocin induced diabetic male Albino rat model assessed as reduction in leptin expression in adipose tissue at 2 mg/kg, po using self assembled nanoparticle as source of compound administered for 4 weeks
Rattus norvegicus [31] = experiment: Antiinflammatory activity in high fat diet/streptozotocin induced diabetic male Albino rat model assessed as reduction in adiponectin expression in adipose tissue at 2 mg/kg, po using self assembled nanoparticle as source of compound administered for 4 weeks
Rattus norvegicus [32] = experiment: Antidiabetic activity in high fat diet/streptozotocin induced diabetic male Albino rat model assessed as restoration of renal cortical architecture in kidney at 2 mg/kg, po using self assembled nanoparticle as source of compound administered for 4 weeks by microscopic analysis
Rattus norvegicus [33] = experiment: Antidiabetic activity in high fat diet/streptozotocin induced diabetic male Albino rat model assessed as restoration of renal cortical architecture in kidney at 2 mg/kg, po administered for 4 weeks by microscopic analysis
Rattus norvegicus [34] = experiment: Antidiabetic activity in high fat diet/streptozotocin induced diabetic male Albino rat model assessed as decrease in kidney damage score at 2 mg/kg, po using self assembled nanoparticle as source of compound administered for 4 weeks by microscopic analysis
Rattus norvegicus [35] = experiment: Antidiabetic activity in high fat diet/streptozotocin induced diabetic male Albino rat model assessed as decrease in kidney damage score at 2 mg/kg, po administered for 4 weeks by microscopic analysis
Rattus norvegicus [36] = experiment: Antidiabetic activity in high fat diet/streptozotocin induced diabetic male Albino rat model assessed as decrease in adipocyte diameter at 2 mg/kg, po using self assembled nanoparticle as source of compound administered for 4 weeks
Rattus norvegicus [37] = experiment: Antidiabetic activity in high fat diet/streptozotocin induced diabetic male Albino rat model assessed as decrease in adipocyte diameter at 2 mg/kg, po administered for 4 weeks

Measured: Activity

O=S(=O)(Nc1ncccn1)c1ccc(NCc2nc3ccccc3[nH]2)cc1
active: Rattus norvegicus [1] | Rattus norvegicus [2] | Rattus norvegicus [3] | Rattus norvegicus [4] | Rattus norvegicus [5] | Rattus norvegicus [6] | Rattus norvegicus [7] | Rattus norvegicus [8] | Rattus norvegicus [9]

CN1CCN(CC(=O)Nc2ccc(S(=O)(=O)Nc3ncccn3)cc2)CC1
active: all assays above

CCN1C(=O)CS/C1=N\c1ccc(S(=O)(=O)Nc2ncccn2)cc1
active: Rattus norvegicus [1] | Rattus norvegicus [2] | Rattus norvegicus [3] | Rattus norvegicus [4] | Rattus norvegicus [5] | Rattus norvegicus [6] | Rattus norvegicus [7] | Rattus norvegicus [8] | Rattus norvegicus [9]

N#CC1=CC(=O)N(c2ccc(S(=O)(=O)Nc3ncccn3)cc2)C1=O
active: Rattus norvegicus [1] | Rattus norvegicus [2] | Rattus norvegicus [3] | Rattus norvegicus [4] | Rattus norvegicus [5] | Rattus norvegicus [6] | Rattus norvegicus [7] | Rattus norvegicus [8] | Rattus norvegicus [9]
